Test results from PMC8535069.

B1: Gαo-GFP wild-type [human] / His6-RGS19 [not stated] (parent)
chain 1: MGCTLSAEERAALERSKAIEKNLKEDGISAAKDVKLLLLGAGESGKSTIVKQMKIIHEDGFSGEDVKQYKPVVYSNTIQSLAAIVRAMDTLGIEYGDKERKADAKMVCDVVSRMEDTEPFSAELLSAMMRLWGDSGIQECFNRSREYQLNDSAKYYLDSLDRIGAADYQPTEQDILRTRVKTTGIVETHFTFKNLHFRLFDVGGQRSERKKWIHCFEDVTAIIFCVALSGYDQVLHEDETTNRMHESLMLFDSICNNKFFIDTSIILFLNKKDLFGEKIKKSPLTICFPEYTGPNTYEDAAAYIQAQFESKNRSPNKEIYCHMTCATDTNNIQVVFDAVTDIIIANNLRGCGLY
chain 2: MPTPHEAEKQITGPEEADRPPSMSSHDTASPAAPSRNPCCLCWCCCCSCSWNQERRRAWQASRESKLQPLPSCEVCATPSPEEVQSWAQSFDKLMHSPAGRSVFRAFLRTEYSEENMLFWLACEELKAEANQHVVDEKARLIYEDYVSILSPKEVSLDSRVREGINKKMQEPSAHTFDDAQLQIYTLMHRDSYPRFLSSPTYRALLLQGPSQSSSEA

Variants of: B1
Assay: co-immunoprecipitation (IP: GFP) with Western blot quantification
Conditions: N2a cells, mean ± SEM from 5 independent experiments, p = 0.0005 vs WT, parent: 1, read off a plot

| ratio to parent (folds over WT) | Variant |
| --- | --- |
| 0.33 | chain 1 Q52P |

Same assay, conditions: N2a cells, mean ± SEM from 5 independent experiments, p = 0.0028 vs WT, parent: 1, read off a plot

| ratio to parent (folds over WT) | Variant |
| --- | --- |
| 0.45 | chain 1 Q52R |
